# Laboratory results as given in ChEMBL document CHEMBL1142779, “Synthesis and in vitro pharmacological studies of new C(2) modified salvinorin A analogues” (2005).
# Protein sequences, listed by entry. Tags and fused reporters are not part of them. Lines headed by an entry give the natural chain unless they say otherwise; changes in a name come on top.
# UniProt P41145: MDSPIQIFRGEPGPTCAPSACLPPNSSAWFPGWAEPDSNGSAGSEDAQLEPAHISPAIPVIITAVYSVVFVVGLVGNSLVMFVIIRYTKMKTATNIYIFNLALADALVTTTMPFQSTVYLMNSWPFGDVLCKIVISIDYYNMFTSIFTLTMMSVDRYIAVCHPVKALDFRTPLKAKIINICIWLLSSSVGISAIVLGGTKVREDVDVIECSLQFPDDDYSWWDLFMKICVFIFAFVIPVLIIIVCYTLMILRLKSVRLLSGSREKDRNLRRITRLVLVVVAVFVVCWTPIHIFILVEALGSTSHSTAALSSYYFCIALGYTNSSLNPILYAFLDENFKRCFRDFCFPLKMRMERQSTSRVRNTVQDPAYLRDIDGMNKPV
# Target: Kappa-type opioid receptor (Homo sapiens, UniProt P41145)
# Assay: Agonistic activity against human k-opioid receptor using [3H]diprenorphine
row,SMILES,Ki
1,CCC(=O)O[C@H]1C[C@@H](C(=O)OC)[C@]2(C)CC[C@H]3C(=O)O[C@H](c4ccoc4)C[C@]3(C)C2C1=O (stereo partly specified),> 1 µM
2,COC(=O)C1=CC(=O)C=C2[C@@]1(C)CC[C@H]1C(=O)O[C@H](c3ccoc3)C[C@]21C,> 1 µM
3,COC(=O)O[C@H]1C[C@@H](C(=O)OC)[C@]2(C)CC[C@H]3C(=O)O[C@H](c4ccoc4)C[C@]3(C)C2C1=O (stereo partly specified),> 1 µM
4,COC(=O)[C@@H]1C[C@H](OC(=O)C(F)(F)F)C(=O)C2[C@@]1(C)CC[C@H]1C(=O)O[C@H](c3ccoc3)C[C@]21C (stereo partly specified),> 1 µM
5,COC(=O)[C@@H]1C[C@H](OC(=O)C2CC2)C(=O)C2[C@@]1(C)CC[C@H]1C(=O)O[C@H](c3ccoc3)C[C@]21C (stereo partly specified),> 1 µM
6,COC(=O)[C@@H]1C[C@H](OC(=O)c2cccc(F)c2)C(=O)C2[C@@]1(C)CC[C@H]1C(=O)O[C@H](c3ccoc3)C[C@]21C (stereo partly specified),> 1 µM
